Experimental findings from patent US20130115208A1 are described below.

Amino acid sequences for entries named in this document (tags omitted). Residues count along the entry.
UniProt P12314, 16-288 limits assumed: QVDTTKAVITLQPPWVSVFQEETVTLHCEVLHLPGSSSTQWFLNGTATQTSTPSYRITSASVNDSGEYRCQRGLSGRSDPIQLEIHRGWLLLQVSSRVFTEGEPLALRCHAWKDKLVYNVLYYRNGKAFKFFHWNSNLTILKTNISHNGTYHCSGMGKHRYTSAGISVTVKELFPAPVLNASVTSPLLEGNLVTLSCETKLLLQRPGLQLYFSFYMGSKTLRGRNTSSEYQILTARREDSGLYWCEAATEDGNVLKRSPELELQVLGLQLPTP
UniProt P31994, 46-217: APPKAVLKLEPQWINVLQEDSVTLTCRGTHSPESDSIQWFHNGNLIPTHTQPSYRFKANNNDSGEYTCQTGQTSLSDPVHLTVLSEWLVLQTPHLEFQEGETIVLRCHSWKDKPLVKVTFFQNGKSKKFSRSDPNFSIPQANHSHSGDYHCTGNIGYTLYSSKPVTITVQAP
UniProt P08637, 17-208 limits assumed: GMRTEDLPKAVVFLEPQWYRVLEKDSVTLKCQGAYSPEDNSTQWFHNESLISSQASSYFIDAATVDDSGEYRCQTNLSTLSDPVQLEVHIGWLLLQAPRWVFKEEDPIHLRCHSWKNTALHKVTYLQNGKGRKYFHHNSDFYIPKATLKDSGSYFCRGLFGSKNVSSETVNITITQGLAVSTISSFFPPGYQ
UniProt P26151, 25-297: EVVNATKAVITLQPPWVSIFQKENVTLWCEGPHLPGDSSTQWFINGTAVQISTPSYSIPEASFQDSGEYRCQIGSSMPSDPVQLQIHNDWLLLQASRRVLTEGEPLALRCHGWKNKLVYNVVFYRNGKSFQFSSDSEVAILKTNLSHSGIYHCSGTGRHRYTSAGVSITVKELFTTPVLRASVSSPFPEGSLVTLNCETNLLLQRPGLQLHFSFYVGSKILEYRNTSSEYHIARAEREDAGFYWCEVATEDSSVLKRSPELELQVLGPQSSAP

Targets include hFcγ1 (human) (UniProt P12314); hFcγ2B (human) (UniProt P31994); hFcγ3A (human) (UniProt P08637); mFcγ1 (UniProt P26151).
Holding throughout (assay): SPR (ProteOn XPR36), IgG amine-coupled, receptor in solution, 25 C

Consider hIgG1 kappa (control) (antibody), for which the equilibrium dissociation constant (Kd) came out at 0.2 nM with hFcγ1 (human), 3000 nM in the assay with hFcγ2B (human), 272 nM with hFcγ3A (human) and 120 nM with mFcγ1.
As to hIgG2 kappa (control) (antibody), the Kd in the assay with hFcγ3A (human) was determined as 1930 nM.

What is called Kd is the concentration at which binding is half-saturated. Lower therefore signals higher affinity.
